In ChEMBL document CHEMBL5370533, “Rational design of 4-((6-phenoxypyrimidin-4-yl)amino)-N-(4-(piperazin-1-yl)phenyl)-1H-pyrazole-3-carboxamide (LT-540-717) as orally bioavailable FLT3 inhibitor” (Eur J Med Chem, 2023):

What was measured:
Homo sapiens [1] = species: Homo sapiens; experiment: Selectivity ratio of IC50 for human CDK2 to IC50 for human FLT3
Homo sapiens [2] = species: Homo sapiens; experiment: Selectivity ratio of IC50 for human CDK6 to IC50 for human FLT3

Compound: O=C(Nc1ccc(N2CCNCC2)cc1)c1n[nH]cc1Nc1cc(Oc2ccccc2)ncn1
- Ratio IC50 (Homo sapiens [1]): 150
- Ratio IC50 (Homo sapiens [2]): 150
